Legend:
[1] = target: TBG (thyroxine-binding globulin) (Homo sapiens, UniProt P05543); assay: Displacement of radioactive T4 from TBG in a CPBA system; design: unit not given here; conditions: 100 ug blocking agent
TBG = TBG (Homo sapiens, UniProt P05543); assay: Displacement of radioactive T3 from TBG; format: binding; conditions: 100 ug blocking agent

By UniProt entry, the sequences of proteins in these tests, tags left out. Residues count along the entry.
UniProt P05543, 21-415 limits assumed: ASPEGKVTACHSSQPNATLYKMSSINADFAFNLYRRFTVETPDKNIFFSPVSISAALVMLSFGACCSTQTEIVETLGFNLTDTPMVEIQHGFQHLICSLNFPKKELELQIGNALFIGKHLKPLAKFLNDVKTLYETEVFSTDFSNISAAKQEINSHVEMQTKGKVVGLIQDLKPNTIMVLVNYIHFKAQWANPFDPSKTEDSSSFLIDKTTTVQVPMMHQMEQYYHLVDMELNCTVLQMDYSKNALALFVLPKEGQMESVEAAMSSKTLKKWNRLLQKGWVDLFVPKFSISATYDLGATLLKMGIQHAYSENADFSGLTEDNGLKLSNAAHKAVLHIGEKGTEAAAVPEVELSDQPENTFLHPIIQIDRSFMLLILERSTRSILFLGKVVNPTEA

## O=[N+]([O-])c1cc([N+](=O)[O-])c(S(=O)(=O)O)c([N+](=O)[O-])c1
[1]
  AMOUNT T4 DISPLACED FROM TBG: 7.1
TBG
  AMOUNT T3 DISPLACED FROM TBG: 7.0 ng
